Data from ChEMBL document CHEMBL5506072, “Discovery of Potent and Selective Covalent Inhibitors of HER2WT and HER2YVMA” (J Med Chem, 2024).

Test system: Sf21
Test: Irreversible covalent inhibition of C-terminal His-tagged HER2 YVMA mutant (703 to 1029 residues)(unknown origin) expressed in Sf21 cells assessed as Kinact/Ki in presence of ATP
Conditions: Homo sapiens

`C=CC(=O)N1CCC[C@@H](n2nc(-c3ccc(Oc4ccccc4)cc3)c3c(N)ncnc32)C1` [IBRUTINIB] was tested, and the K was 7 10^4/M/s.
